Several values for one entry are separate records, joined by “and”; a condition that tells them apart may be missing. Identical values can stand only once.
System: PNH erythrocytes
Assay: CAP-mediated hemolysis assay with PNH erythrocytes (subject A)
Assay type: cell-based, human
Settings: 400 μg/mL; two experiments
Description: Compound 1 and Compstatin were prepared as 15 mM stocks in DMSO. […] Complement-preserved normal human serum (NHS) from an individual donor of ABO blood group type AB (NHS-AB) was purchase from BioreclamationIVT (Westbury, NY). Gelatin veronal buffer (GVB), pH 7.3, without Ca^++ and Mg^++ (GVB^0) and 100 mM MgCl2 +100 mM EGTA (MgEGTA) were obtained from Complement Technology Inc. (Tyler, TX).
GVB^0·MgEGTA was prepared by mixing GVB^0 and 100 mM MgEGTA in a 9:1 ratio. PNH erythrocytes were used within five days of blood collection; before assay cells were collected by centrifugation at 800×g and 4° C. for 3 minutes and resuspended in fresh cold GVB^0·MgEGTA to a density of 5×10^8 cells/mL.
50 μL of NHS-AB was added to each well. The plates were mixed and incubated at room temperature for 5 minutes. […] Following incubation, PNH cells were removed by centrifugation at 800×g and 4° C. for 3 minutes, 100 μL supernatant per well was transferred to flat-bottom clear microtiter plates, and A405 of the supernatant was measured in a Molecular Devices Spectramax Plus plate reader. […]
Combinatorial interactions were analyzed via two methods. […]
Synergy and antagonism volumes were calculated separately as the summed volumes of peaks respectively above and below the Z=0 plane. Volumes were determined using 95% confidence limits to assure significance. […]

B1: Eculizumab: monoclonal antibody complement inhibitor of the terminal component C5; only approved therapy for PNH (antibody, chains of the INN, looked up)
heavy: QVQLVQSGAEVKKPGASVKVSCKASGYIFSNYWIQWVRQAPGQGLEWMGEILPGSGSTEYTENFKDRVTMTRDTSTSTVYMELSSLRSEDTAVYYCARYFFGSSPNWYFDVWGQGTLVTVSSASTKGPSVFPLAPCSRSTSESTAALGCLVKDYFPEPVTVSWNSGALTSGVHTFPAVLQSSGLYSLSSVVTVPSSNFGTQTYTCNVDHKPSNTKVDKTVERKCCVECPPCPAPPVAGPSVFLFPPKPKDTLMISRTPEVTCVVVDVSQEDPEVQFNWYVDGVEVHNAKTKPREEQFNSTYRVVSVLTVLHQDWLNGKEYKCKVSNKGLPSSIEKTISKAKGQPREPQVYTLPPSQEEMTKNQVSLTCLVKGFYPSDIAVEWESNGQPENNYKTTPPVLDSDGSFFLYSRLTVDKSRWQEGNVFSCSVMHEALHNHYTQKSLSLSLG
light: DIQMTQSPSSLSASVGDRVTITCGASENIYGALNWYQQKPGKAPKLLIYGATNLADGVPSRFSGSGSGTDFTLTISSLQPEDFATYYCQNVLNTPLTFGQGTKVEIKRTVAAPSVFIFPPSDEQLKSGTASVVCLLNNFYPREAKVQWKVDNALQSGNSQESVTEQDSKDSTYSLSSTLTLSKADYEKHKVYACEVTHQGLSSPVTKSFNRGEC
Question: B1 was tested. Which “inhibition at maximal test concentration” value did it give?
Answer: 34% and 38%

From patent publication US20250032490A1, “THERAPEUTIC REGIMENS FOR TREATMENT OF PAROXYSMAL NOCTURNAL HEMOGLOBINURIA” (Achillion Pharmaceuticals, Inc., priority 2017, published 2025)
